TRPM1 prom inh = inhibitors of MITF-dependent TRPM1 promoter reporter, primary screen, cell-based, SK-MEL-5, single point, luciferase. SK-MEL-5 TRPM1 promoter luciferase, 24 h. inhibition, % at 12.5 µM. hit rate 0.83% among 330,000;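 active = mean inhibition across replicates of 60% or more, whatever share of single replicates reaches that level; inconclusive = some that reach 60%, reason not given; inactive = mean inhibition across replicates below 60%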
PGC1a acetyl inh = inhibitors of PGC1a acetylation signal, primary screen, cell-based, U2OS, AlphaScreen, inhibitor mode; AlphaScreen anti-acetyl-lysine; with virally co-expressed GCN5 acetyltransferase; inhibition, % at 15.6 µM; hit rate 0.17% among 350,000; AID 651687, 2012;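 active = every replicate shows inhibition of at least 40%; inconclusive = mean inhibition at least 40% but some replicate below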;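 note: 0% = neutral control wells and 100% = positive control wells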
Wnt bcat act = Wnt/beta-catenin pathway activators, primary screen, cell-based, plate reader, single point | Wnt/beta-catenin reporter cell assay, activator | activation, % at 9.35 µM | hit rate 1.2% among 300,000 | AID 743398, 2014; in the data active = activation above about 30%, passing the limit was not always enough; inconclusive = no clear call, values can overlap the other calls;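 note: 0% = neutral control wells and 100% = positive control wells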
MITF TRPM1 HTS = activators of MITF-driven TRPM1 promoter reporter, primary screen, cell-based, SK-MEL-5, luciferase, single point; SK-MEL-5 TRPM1-promoter luciferase, 24 h; % of positive control, neutral wells = 0; activation, % at 12.5 µM; hit rate 0.75% among 300,000; AID 588334, 2011;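 active = mean activation of at least 80% with every replicate also reaching 80%; inconclusive = mean reaches 80% but some replicate falls short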;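 note: 0% = neutral control wells and 100% = parthenolide positive control wells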
miR-122 sensor = miR-122 Renilla sensor signal increase in Huh7, primary screen, miR-122 inhibitor project, cell-based, single point, plate reader; Huh7 miR-122 Renilla luciferase sensor, 48 h; neutral wells = 0, positive control = 100; activation (reporter increase), % at 12.5 µM; hit rate 0.3% among 340,000;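 active = mean replicate activation score at least 90 and every replicate individually at or above 90; inconclusive = only one of the two criteria met; inactive = neither criterion met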;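 note: higher luciferase means less miR-122 activity so hits act as miR-122 inhibitors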
Yeast UUG start = yeast start codon fidelity modulation. S. cerevisiae UUG-firefly luciferase reporter, luminescence/redox ratio. activity score, % at 18.7 µM. 0.13% of 350,000 active;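 active means replicate mean at a twofold rise or more, about +100% in these data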;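 further: firefly luciferase made from a UUG start codon reports start codon fidelity; reporter light over untreated wells divided by growth signal over untreated wells; some hits fall short of that in this replicate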
An asterisk follows results filed as active; ? = inconclusive; · = no result given; ! = a repeat was not active; [ ] = remark or other dose. In the library only some 2.1% were active in any assay of this set; here they are far more common.

Short keys: A = TRPM1 prom inh; B = PGC1a acetyl inh; C = Wnt bcat act; D = MITF TRPM1 HTS; E = miR-122 sensor; F = Yeast UUG start
C[C@H]1CN([C@@H](C)CO)S(=O)(=O)c2ccc(C3=CCCCC3)cc2O[C@H]1CN(C)Cc1ccccc1F
  A = · | B = -25 | C = · | D = · | E = · | F = -2

C[C@H](CO)N1C[C@H](C)[C@@H](CN(C)Cc2ccccc2)OCCCC[C@H](C)Oc2ccc(NC(=O)CCC(F)(F)F)cc2C1=O
  A = · | B = -9 | C = · | D = · | E = 2[16.7 µM] | F = ·

Nc1nc2ccccc2n1C(=O)c1ccccc1
  A = 1 | B = · | C = -5 | D = -1 | E = · | F = ·

Nc1nc2ccccc2n1C(=O)c1ccco1
  A = -26 | B = · | C = 37* | D = 28 | E = · | F = ·

COc1cccc(NC(=O)Cn2c(=O)oc3cc(S(=O)(=O)N4CCCC4)ccc32)c1
  A = -2 | B = 6 | C = 37* | D = 1 | E = -6 | F = 4

COc1ccccc1NS(=O)(=O)c1cc(NC(=O)CC(C)(C)C)ccc1N1CCOCC1
  A = 1 | B = 0 | C = -1 | D = 0 | E = 34 | F = 0

COc1ccc(NS(=O)(=O)c2cc(NC(=O)c3cccs3)ccc2N2CCOCC2)cc1
  A = 10 | B = -6 | C = 1 | D = -7 | E = 46 | F = -24

COc1ccccc1NS(=O)(=O)c1cc(NC(=O)c2cccs2)ccc1N1CCOCC1
  A = -7 | B = -31 | C = 9 | D = 10 | E = 112* | F = ·

CCC(C(=O)Nc1ccc(N2CCOCC2)c(S(=O)(=O)Nc2ccccc2OC)c1)c1ccccc1 (stereo not given)
  A = -2 | B = -12 | C = -3 | D = 7 | E = 121* | F = ·

COc1ccc(NS(=O)(=O)c2cc(NC(=O)CCc3ccc(OC)c(OC)c3)ccc2N2CCOCC2)cc1
  A = 6 | B = -13 | C = -2 | D = -4 | E = 118* | F = 2

COc1ccc(NS(=O)(=O)c2cc(NC(=O)C3CC3)ccc2N2CCOCC2)cc1
  A = -4 | B = -8 | C = -2 | D = 8 | E = 87 | F = -4

COc1ccccc1NS(=O)(=O)c1cc(NC(=O)CCC2CCCC2)ccc1N1CCOCC1
  A = -10 | B = 3 | C = -1 | D = 7 | E = 119* | F = -10

O=C(NC1CCCC1)N[C@H]1CC[C@@H](CC(=O)N2CCOCC2)O[C@@H]1CO
  A = · | B = 0 | C = · | D = · | E = -15[16.7 µM] | F = -13

CCCC#Cc1cnc2c(c1)C(=O)N([C@@H](C)CO)C[C@@H](C)[C@H](CN(C)C(=O)c1ccc3c(c1)OCO3)O2
  A = · | B = -3 | C = · | D = · | E = -4[16.7 µM] | F = 6

Cc1ccc(NC(=O)c2ccc(F)cc2)nc1
  A = -61 | B = · | C = 51* | D = 61 | E = · | F = ·

Sorted by SMILES length (smallest number first): some entries from above
Short keys: A = TRPM1 prom inh; B = PGC1a acetyl inh; C = Wnt bcat act; D = MITF TRPM1 HTS; E = miR-122 sensor; F = Yeast UUG start
COc1ccccc1NS(=O)(=O)c1cc(NC(=O)CC(C)(C)C)ccc1N1CCOCC1
  A = 1 | B = 0 | C = -1 | D = 0 | E = 34 | F = 0

COc1cccc(NC(=O)Cn2c(=O)oc3cc(S(=O)(=O)N4CCCC4)ccc32)c1
  A = -2 | B = 6 | C = 37* | D = 1 | E = -6 | F = 4

C[C@H]1CN([C@@H](C)CO)S(=O)(=O)c2ccc(C3=CCCCC3)cc2O[C@H]1CN(C)Cc1ccccc1F
  A = · | B = -25 | C = · | D = · | E = · | F = -2

Carrying on.
Short keys: A = TRPM1 prom inh; B = PGC1a acetyl inh; C = Wnt bcat act; D = MITF TRPM1 HTS; E = miR-122 sensor; F = Yeast UUG start
Cc1ccc(NC(=O)c2sccc2C)nc1
  A = -20 | B = · | C = 52* | D = 23 | E = -7 | F = -22

Cc1ccc(NC(=O)c2ccc3[nH]c(=O)c(=O)[nH]c3c2)nc1
  A = -11 | B = -1 | C = 5 | D = 13 | E = 3 | F = -20

CC(C)(C)c1ccc(C(=O)Nc2ccc([N+](=O)[O-])cn2)cc1
  A = -101 | B = 4 | C = · | D = 107* | E = -3 | F = -5

O=C(Nc1ccc([N+](=O)[O-])cn1)c1cccnc1
  A = -2 | B = · | C = -3 | D = · | E = · | F = -7

C[C@H](CO)N1C[C@H](C)[C@H](CN(C)S(=O)(=O)c2cccs2)Oc2ccc(NC(=O)Cn3cnnn3)cc2C1=O
  A = · | B = -7 | C = · | D = · | E = 2[16.7 µM] | F = -9

CC(=O)N(C)C[C@H]1Oc2ncc(-c3cccc(C#N)c3)cc2C(=O)N([C@@H](C)CO)C[C@H]1C
  A = · | B = 11 | C = · | D = · | E = 3[16.7 µM] | F = -3

COc1cc(NS(=O)(=O)c2ccc(NC(=S)NC(=O)c3ccco3)cc2)nc(OC)n1
  A = -3 | B = 0 | C = 2 | D = 4 | E = 243* | F = -10

CCC(=O)Nc1ccc2c(c1)C(=O)N(C)C[C@H](OC)[C@H](C)CN(Cc1ccncc1)[C@H](C)CO2
  A = · | B = 4 | C = · | D = · | E = · | F = ·

C[C@H](CO)N1C[C@H](C)[C@@H](CN(C)C(=O)Nc2ccc(F)cc2)Oc2ccc(NC(=O)NC3CCCCC3)cc2CC1=O
  A = · | B = 2 | C = · | D = · | E = 0[16.7 µM] | F = 20

Nc1ccc(-c2nc3ncccc3o2)c(Cl)c1
  A = -35 | B = · | C = 42* | D = 43 | E = · | F = 1

Nc1ccc(-c2nc3ncccc3o2)c(O)c1
  A = -93 | B = -4 | C = 18 | D = 95* | E = · | F = -21

Cc1noc(C)c1S(=O)(=O)Nc1ccc2c(c1)C(=O)N([C@H](C)CO)C[C@H](C)[C@@H](CN(C)S(=O)(=O)c1c(C)noc1C)OCCCC[C@H](C)O2
  A = · | B = 4 | C = · | D = · | E = -5[16.7 µM] | F = 16

CC(C)c1cn(CC[C@H]2CC[C@H](NS(=O)(=O)c3ccc(F)cc3)[C@@H](CO)O2)nn1
  A = · | B = 8 | C = · | D = · | E = · | F = -5

Cc1nc(Cc2ccccc2)sc1CC#N
  A = 4 | B = 2 | C = 51* | D = -2 | E = · | F = -24

c1ccc(CCn2nnc3ccccc32)cc1
  A = -95 | B = · | C = 54* | D = 98* | E = -1 | F = ·

COc1ccc2c3c([nH]c2c1)[C@@H](CO)N(C(=O)NC(C)C)CC31CN(C(=O)C2CCCCC2)C1
  A = · | B = 7 | C = · | D = · | E = · | F = ·

COCC(=O)Nc1ccc2c(c1)[C@H]1C[C@@H](CC(=O)N3CCOCC3)O[C@@H](CO)[C@H]1O2
  A = · | B = -5 | C = · | D = · | E = -5[16.7 µM] | F = ·

COc1cccc(NS(=O)(=O)c2cc(C)sc2C)c1
  A = -11 | B = -8 | C = · | D = 13 | E = 121* | F = -7

Cc1cc(S(=O)(=O)Nc2cccc(Cl)c2)c(C)s1
  A = -18 | B = -8 | C = -1 | D = 16 | E = 44 | F = ·

COc1ccc2c(c1OC)C(=O)N(c1ccc(F)cc1)C2
  A = -69 | B = 4 | C = 38* | D = ? | E = -6 | F = -19

COc1ccc2c(c1OC)C(=O)N(c1cccc(NC(C)=O)c1)C2
  A = -23 | B = 0 | C = 9 | D = 25 | E = 3 | F = 3

C[C@H](CO)N1C[C@H](C)[C@@H](CN(C)C(=O)CN2CCOCC2)Oc2ncc(C#CCN(C)C)cc2C1=O
  A = · | B = 1 | C = · | D = · | E = -3[16.7 µM] | F = -15

COC(=O)CSC1=C(C#N)C(=O)NC(c2ccccc2)S1 (stereo not given)
  A = 74* | B = 10 | C = -1 | D = -74 | E = 0 | F = -18

CSC1=C(C#N)C(=O)NC(c2ccccc2O)S1 (stereo not given)
  A = 0 | B = 3 | C = 0 | D = · | E = · | F = ·

COc1ccc(S(=O)(=O)N(C)C[C@@H]2Oc3ccc(N(C)C)cc3C(=O)N([C@H](C)CO)C[C@H]2C)cc1
  A = · | B = 3 | C = · | D = · | E = -4[16.7 µM] | F = -3

C[C@@H]1CN([C@@H](C)CO)C(=O)c2cc(NC(=O)c3ccncc3)ccc2O[C@@H]1CN(C)S(=O)(=O)c1ccc(Cl)cc1
  A = · | B = -1 | C = · | D = · | E = 51[16.7 µM] | F = -5

C[C@H](CO)N1C[C@H](C)[C@@H](CN(C)S(=O)(=O)c2ccc(Cl)cc2)OCc2cnnn2CCCC1=O
  A = · | B = 5 | C = -3 | D = · | E = -2 | F = -25

C[C@@H]1CN([C@@H](C)CO)C(=O)CCCn2nncc2CO[C@H]1CN(C)S(=O)(=O)c1ccc(Cl)cc1
  A = · | B = 97*! | C = -1 | D = · | E = 1 | F = -14

C[C@@H]1CN([C@H](C)CO)C(=O)c2cc(NC(=O)c3ccncc3)ccc2O[C@@H]1CN(C)S(=O)(=O)c1ccc(Cl)cc1
  A = · | B = -1 | C = · | D = · | E = 179*[16.7 µM] | F = 1

C[C@@H]1CN([C@H](C)CO)C(=O)c2cc(N(C)C)ccc2O[C@@H]1CN(C)S(=O)(=O)c1ccc(Cl)cc1
  A = · | B = -4 | C = · | D = · | E = 98*[16.7 µM] | F = 4

Screening data from PubChem BioAssay.
